{"sequences": {"note": "Protein sequences, listed by entry. Tags and fused reporters are not part of them.", "UniProt P08912, whole entry": "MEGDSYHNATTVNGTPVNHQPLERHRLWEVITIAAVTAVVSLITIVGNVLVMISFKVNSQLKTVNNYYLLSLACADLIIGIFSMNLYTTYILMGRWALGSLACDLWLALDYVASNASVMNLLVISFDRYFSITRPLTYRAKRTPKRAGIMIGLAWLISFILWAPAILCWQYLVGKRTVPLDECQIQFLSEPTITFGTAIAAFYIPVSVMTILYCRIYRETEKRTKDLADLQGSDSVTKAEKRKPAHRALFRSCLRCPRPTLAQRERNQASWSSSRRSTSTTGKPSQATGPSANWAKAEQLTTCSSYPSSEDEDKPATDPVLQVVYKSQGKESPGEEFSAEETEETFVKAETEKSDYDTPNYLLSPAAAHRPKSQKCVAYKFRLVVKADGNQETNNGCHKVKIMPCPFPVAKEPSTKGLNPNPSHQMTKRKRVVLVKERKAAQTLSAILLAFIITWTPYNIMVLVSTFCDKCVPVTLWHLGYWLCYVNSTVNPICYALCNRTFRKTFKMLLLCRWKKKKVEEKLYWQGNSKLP"}, "source": "PubChem BioAssay AID624038", "about": "(The Scripps Research Institute Molecular Screening Center, 2012)", "note": "The list shows a part of the results, in another mix than the full data. Some structures show a salt or complex split into parts, the way the source records it. The source made the active and inactive calls.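 How the source made its calls: active means activation above the run cutoff, the mean activation of all test compounds plus 3 SD (cut at about 18% in these data); inactive means the rest.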"}
{"target": "Muscarinic acetylcholine receptor M5 (Homo sapiens) (UniProt P08912)", "experiment": "CHRM5 PAMs potentiating acetylcholine calcium signal – CHO-K1 cells, Fluo-8 calcium fluorescence, primary screen (AID 624038)", "settings": "CHO-K1 hM5, Fluo-8 calcium, ACh EC20 PAM; at 3 µM; active compounds read high; 0% = ACh EC20, 100% = ACh EC100"}
{"smiles": "CP(=O)(Nc1ccccn1)Oc1ccc(Cl)cc1", "note": "(stereo not drawn)", "activation": "inactive: 0.03%"}
{"smiles": "O=[N+]([O-])c1cc([N+](=O)[O-])c(O)c([N+](=O)[O-])c1.c1ccc(Oc2ccncc2)cc1", "activation": "inactive: 4.7%"}
{"smiles": "CCOC(=O)c1ccc(NP(C)(=O)Oc2ccc(OC)cc2)cc1", "note": "(stereo not drawn)", "activation": "inactive: -0.37%"}
{"smiles": "CCOP(C)(=S)SCC(=O)NC(C)C(=O)O", "note": "(stereo not drawn)", "activation": "inactive: 1.74%"}
{"smiles": "Cc1cc(C)cc(OP(C)(=O)Nc2ccc(SC(F)(F)F)cc2)c1", "note": "(stereo not drawn)", "activation": "inactive: 4.18%"}
{"smiles": "CP(=O)(NC(=O)Nc1ccccc1)Oc1ccccc1", "note": "(stereo not drawn)", "activation": "inactive: -5.17%"}
{"smiles": "CCc1ccc(OP(C)(=O)N2CCN(c3ccc([N+](=O)[O-])cc3)CC2)cc1", "note": "(stereo not drawn)", "activation": "inactive: -19.8%"}
{"smiles": "CP(=O)(Oc1ccccc1)OC(c1ccccc1)C(F)(F)F", "note": "(stereo not drawn)", "activation": "inactive: -1.85%"}
{"smiles": "CP(=O)(Nc1ccc(SC(F)(F)F)cc1)Oc1ccc(Cl)cc1", "note": "(stereo not drawn)", "activation": "inactive: -5.92%"}
{"smiles": "Cc1ccc(Nc2c([N+](=O)[O-])cc([N+](=O)[O-])cc2[N+](=O)[O-])cc1", "activation": "inactive: -6.18%"}
{"smiles": "Cc1cccc(C)c1OP(C)(=O)Nc1ccc(SC(F)(F)F)cc1", "note": "(stereo not drawn)", "activation": "inactive: -1.27%"}
{"smiles": "CP(=O)(Nc1ccccc1Br)Oc1ccccc1", "note": "(stereo not drawn)", "activation": "inactive: 8.84%"}
{"smiles": "COc1ccccc1OP(C)(=O)Nc1ccccc1", "note": "(stereo not drawn)", "activation": "inactive: 1.34%"}
{"smiles": "CP(=S)(Nn1cnnc1)Oc1ccccc1", "note": "(stereo not drawn)", "activation": "inactive: -1.14%"}
{"smiles": "CCCCOc1ccc(C(=O)NCC2(N3CCCCC3)CCCCC2)cc1OC", "activation": "inactive: -2.52%"}
{"smiles": "Cc1cc(C)cc(OP(C)(N)=O)c1", "note": "(stereo not drawn)", "activation": "inactive: 14.1%"}
{"smiles": "COc1ccc(OP(C)(=O)Nc2cccc(F)c2)cc1", "note": "(stereo not drawn)", "activation": "inactive: -4.95%"}
{"smiles": "COc1ccccc1OP(C)(=O)Nc1cc(Cl)ccc1C", "note": "(stereo not drawn)", "activation": "inactive: 4.11%"}
{"smiles": "Cc1ccc(NP(C)(=O)Oc2ccccc2)c(C)c1", "note": "(stereo not drawn)", "activation": "inactive: 4.93%"}
{"smiles": "COc1ccccc1OP(C)(=O)Nc1ccc(C)cc1", "note": "(stereo not drawn)", "activation": "inactive: 2.78%"}
{"smiles": "CCOC(=O)c1ccc(NP(C)(=O)Oc2ccccc2)cc1", "note": "(stereo not drawn)", "activation": "inactive: 1.63%"}
{"smiles": "O=[N+]([O-])c1ccc2c(c1)C=Nc1ccccc1O2", "activation": "inactive: -0.38%"}
{"smiles": "Cc1cccc(C)c1OP(C)(N)=O", "note": "(stereo not drawn)", "activation": "inactive: -1.88%"}
{"smiles": "CC(C)(C)c1ccc(OP(C)(=O)Nc2ccc(SC(F)(F)F)cc2)cc1", "note": "(stereo not drawn)", "activation": "inactive: -16.2%"}
{"smiles": "COc1cc(C(=O)NCC2(N3CCOCC3)CCCCC2)ccc1OCC(C)C", "activation": "inactive: -0.48%"}
{"smiles": "O=[N+]([O-])c1cc([N+](=O)[O-])c(Nc2cccnc2)c([N+](=O)[O-])c1", "activation": "inactive: -13.1%"}
{"smiles": "COc1ccccc1-c1ccccn1.O=[N+]([O-])c1cc([N+](=O)[O-])c(O)c([N+](=O)[O-])c1", "activation": "inactive: 10.4%"}
{"smiles": "CCN(CC)CCCOC(=O)C(O)(c1ccccc1)c1ccccc1", "activation": "inactive: -30.9%"}
{"smiles": "Cc1ccc(C)c(NP(C)(=O)Oc2ccccc2)c1", "note": "(stereo not drawn)", "activation": "inactive: 8.27%"}
{"smiles": "Cc1cc(C)cc(OP(C)(=O)Nc2ccccn2)c1", "note": "(stereo not drawn)", "activation": "inactive: 4.33%"}
{"smiles": "CP(=O)(Nc1cccc(Br)c1)Oc1ccccc1", "note": "(stereo not drawn)", "activation": "inactive: 4.32%"}
{"smiles": "CCOC(=O)c1ccc(NP(C)(=O)Oc2cc(C)cc(C)c2)cc1", "note": "(stereo not drawn)", "activation": "inactive: -1.35%"}
{"smiles": "Cc1cc(C)cc(OP(C)(=O)Nc2ccc(C)cc2C)c1", "note": "(stereo not drawn)", "activation": "inactive: 3.12%"}
{"smiles": "COc1ccccc1OP(C)(=O)Nc1cccc(Br)c1", "note": "(stereo not drawn)", "activation": "inactive: -0.79%"}
{"smiles": "COc1cc(C(=O)NCC2(N3CCOCC3)CCCCC2)cc(Cl)c1OC(C)C", "activation": "inactive: -8.43%"}
{"smiles": "CC1=NCCc2c1[nH]c1ccccc21.O=[N+]([O-])c1cc([N+](=O)[O-])c(O)c([N+](=O)[O-])c1", "activation": "inactive: 2.29%"}
{"smiles": "O=C(O)c1cccc(Nc2c([N+](=O)[O-])cc([N+](=O)[O-])cc2[N+](=O)[O-])c1", "activation": "inactive: 0.31%"}
{"smiles": "COc1ccc(-c2ccccn2)cc1.O=[N+]([O-])c1cc([N+](=O)[O-])c(O)c([N+](=O)[O-])c1", "activation": "inactive: 1.4%"}
{"smiles": "CCCOc1ccc(NP(C)(=O)Oc2ccc(Cl)cc2)cc1", "note": "(stereo not drawn)", "activation": "inactive: 9.87%"}
{"smiles": "CP(=O)(Nc1ccc(SC(F)(F)F)cc1)Oc1ccccc1", "note": "(stereo not drawn)", "activation": "inactive: -7.71%"}
{"smiles": "CN1CCCCC1COC(=O)C1(O)c2ccccc2CCc2ccccc21", "note": "(stereo not drawn)", "activation": "inactive: -19%"}
{"smiles": "COc1ccccc1OP(C)(=O)Nc1c(C)cccc1C", "note": "(stereo not drawn)", "activation": "inactive: -0.42%"}
{"smiles": "CCOC(=O)C(CC)C1=NC(C)(C)Cc2ccccc21.O=[N+]([O-])c1cc([N+](=O)[O-])c(O)c([N+](=O)[O-])c1", "note": "(stereo not drawn)", "activation": "inactive: -0.38%"}
{"smiles": "CC1=C2N=C(C=C3N=C(C(C)=C4[N-][C@@](C)([C@@H]5N=C1[C@](C)(CCC(=O)NC[C@@H](C)OP(=O)([O-])O[C@H]1[C@@H](O)[C@@H](n6cnc7cc(C)c(C)cc76)O[C@@H]1CO)[C@H]5CC(N)=O)[C@@](C)(CC(N)=O)[C@@H]4CCC(N)=O)[C@@](C)(CC(N)=O)[C@@H]3CCC(N)=O)C(C)(C)[C@@H]2CCC(N)=O.[C-]#N.[Co+3]", "activation": "inactive: 0.8%"}
{"smiles": "CN(C)C1(CNC(=O)c2ccc(S(C)(=O)=O)cc2)CCCCC1", "activation": "inactive: 6.55%"}
{"smiles": "O=[N+]([O-])c1cc([N+](=O)[O-])c(Nc2nnnn2CCO)c([N+](=O)[O-])c1", "activation": "inactive: -5.35%"}
{"smiles": "Cc1nc2ccc3ccccc3c2s1.O=[N+]([O-])c1cc([N+](=O)[O-])c(O)c([N+](=O)[O-])c1", "activation": "inactive: 7.49%"}
{"smiles": "O=[N+]([O-])c1cc([N+](=O)[O-])c(-c2cnn(-c3ccccc3)c2)c([N+](=O)[O-])c1", "activation": "inactive: -11.6%"}
{"smiles": "CN(Cc1cccnc1)C(=O)COc1ccc(Cl)c(Cl)c1.O=[N+]([O-])c1cc([N+](=O)[O-])c(O)c([N+](=O)[O-])c1", "activation": "inactive: 1.52%"}
{"smiles": "O=[N+]([O-])c1cc([N+](=O)[O-])c(-n2nnc3ccccc32)c([N+](=O)[O-])c1", "activation": "inactive: 3.87%"}
{"smiles": "Cc1ccccc1NP(C)(=O)Nc1ccccc1C", "activation": "inactive: 3.5%"}
{"smiles": "O=[N+]([O-])c1cc([N+](=O)[O-])c(C(F)(F)F)c([N+](=O)[O-])c1O", "activation": "inactive: -2.16%"}
{"smiles": "CP(=O)(Nc1ccc2c(c1)OCCO2)Oc1ccccc1", "note": "(stereo not drawn)", "activation": "inactive: -4.04%"}
{"smiles": "CCOP(C)(=S)SCC(=O)NC(C)(CC)C(=O)O", "note": "(stereo not drawn)", "activation": "inactive: 6.83%"}
{"smiles": "CP(=O)(Nc1ccc(SC(F)(F)F)cc1)Oc1ccc(F)cc1", "note": "(stereo not drawn)", "activation": "inactive: -9.72%"}
{"smiles": "Cc1c(C(c2ccc3c(c2)OCO3)c2c(C)n(C)n(-c3ccccc3)c2=O)c(=O)n(-c2ccccc2)n1C.O=[N+]([O-])c1cc([N+](=O)[O-])c(O)c([N+](=O)[O-])c1", "activation": "inactive: -3.69%"}
{"smiles": "O=[N+]([O-])c1ccc(OP2(=O)COCCO2)cc1", "note": "(stereo not drawn)", "activation": "inactive: 3.88%"}
{"smiles": "Cc1cc(-c2cccc3ccccc23)c(C)cn1.O=[N+]([O-])c1cc([N+](=O)[O-])c(O)c([N+](=O)[O-])c1", "activation": "inactive: 2.61%"}
{"smiles": "O=[N+]([O-])c1cc([N+](=O)[O-])c(NCC2CCS(=O)(=O)C2)c([N+](=O)[O-])c1", "note": "(stereo not drawn)", "activation": "inactive: 6.9%"}
{"smiles": "CN(C)CCOC(=O)C(O)(c1ccccc1)C1CCCCC1", "note": "(stereo not drawn)", "activation": "inactive: -25.5%"}
{"smiles": "COc1ccc(NP(C)(=O)Oc2ccccc2OC)cc1", "note": "(stereo not drawn)", "activation": "inactive: -12%"}
{"smiles": "COc1ccc(OP(C)(=O)Nc2cccc(Br)c2)cc1", "note": "(stereo not drawn)", "activation": "inactive: -3.51%"}
{"smiles": "CN(C)C1(CNC(=O)c2ccc(Cl)c(S(N)(=O)=O)c2)CCCCC1", "activation": "inactive: -0.69%"}
{"smiles": "CP(=O)(Nc1ccccc1)Oc1ccc(F)cc1", "note": "(stereo not drawn)", "activation": "inactive: -0.02%"}
{"smiles": "CCCCCOc1ccc(NP(C)(=O)Oc2ccc(Cl)cc2Cl)cc1", "note": "(stereo not drawn)", "activation": "inactive: 12.7%"}
{"smiles": "O=[N+]([O-])c1cc([N+](=O)[O-])c(OC2CCCCC2O)c([N+](=O)[O-])c1", "note": "(stereo not drawn)", "activation": "inactive: 8.04%"}
{"smiles": "Cc1c([N+](=O)[O-])cc([N+](=O)[O-])c(Br)c1[N+](=O)[O-]", "activation": "inactive: -1.08%"}
{"smiles": "CCN(CC)CCCOC(=O)C(O)(c1ccccc1)C1CCCCC1", "note": "(stereo not drawn)", "activation": "inactive: -55.5%"}
{"smiles": "CCOC(=O)c1ccc(NP(C)(=O)Oc2ccc(F)cc2)cc1", "note": "(stereo not drawn)", "activation": "inactive: -3.23%"}
{"smiles": "COc1ccc(OP(C)(=O)Nc2ccc(SC(F)(F)F)cc2)cc1", "note": "(stereo not drawn)", "activation": "inactive: 0.84%"}
{"smiles": "CCN(CC)CCCNc1ccccc1[N+](=O)[O-].O=[N+]([O-])c1cc([N+](=O)[O-])c(O)c([N+](=O)[O-])c1", "activation": "inactive: -9.87%"}
{"smiles": "COc1ccc2c(c1O)-c1c(O)c(OC)cc3c1[C@H](C2)[N+](C)(C)CC3.O=[N+]([O-])c1cc([N+](=O)[O-])c([O-])c([N+](=O)[O-])c1[O-]", "activation": "inactive: -3.5%"}
{"smiles": "O=C(OC1CN2CCC1CC2)c1ccc([N+](=O)[O-])cc1", "note": "(stereo not drawn)", "activation": "inactive: 3.12%"}
{"smiles": "O=C(OCCN1CCN(CCOCc2ccccc2)CC1)C(O)(c1ccccc1)c1ccccc1", "activation": "inactive: -21.4%"}
{"smiles": "CP(=O)(Nc1ccccc1F)Oc1ccccc1", "note": "(stereo not drawn)", "activation": "inactive: 0.62%"}
{"smiles": "CC(C)c1ccc(OP(C)(=O)Nc2ccc(SC(F)(F)F)cc2)cc1", "note": "(stereo not drawn)", "activation": "inactive: -12.8%"}
{"smiles": "O=[N+]([O-])c1cc([N+](=O)[O-])c(Nc2ccc(Cl)cc2)c([N+](=O)[O-])c1", "activation": "inactive: -15.2%"}
{"smiles": "COc1ccccc1OP(C)(=O)Nc1ccc(C)cc1C", "note": "(stereo not drawn)", "activation": "inactive: 5.24%"}
{"smiles": "CP(=O)(Nc1ccccn1)Oc1ccccc1", "note": "(stereo not drawn)", "activation": "inactive: 6.32%"}
{"smiles": "CCc1ccc(OP(C)(=O)O)cc1", "activation": "inactive: 4.34%"}
{"smiles": "Cc1c(NP(C)(=O)Oc2ccc(C(C)C)cc2)c(=O)n(-c2ccccc2)n1C", "note": "(stereo not drawn)", "activation": "inactive: -3.81%"}
{"smiles": "O=[N+]([O-])c1cc([N+](=O)[O-])c(Nc2ccccn2)c([N+](=O)[O-])c1", "activation": "inactive: -7.68%"}
{"smiles": "COc1ccc(OP(C)(=O)Nc2ccccn2)cc1", "note": "(stereo not drawn)", "activation": "inactive: 6.38%"}
